{"source": "paper PMC12765055", "key": {"[1]": {"target": "ryanodine receptor 1 (RyR1) in porcine skeletal SR membranes (pig (endogenous in porcine skeletal muscle SR)) (UniProt P16960)", "assay": "FRET or BRET; fluorescence-lifetime FRET from D-FKBP preloaded on skeletal SR (0.5 mg/ml; unbound D-FKBP removed by centrifugation) to A-CaM (150 nM in results, 150 μM in methods); 30 nM free Ca2+, 5 mM GSSG, 20 mM PIPES, 150 mM KCl, 0.1 mg/ml BSA; 1536-well plates, read 60 min after loading; DMSO or 20 μM suramin controls"}, "[2]": {"target": "ryanodine receptor 2 (RyR2) in porcine cardiac SR membranes (pig (endogenous in porcine left ventricle SR))", "assay": "FRET or BRET; fluorescence-lifetime FRET from D-FKBP preloaded on H2O2-treated (100 μM) cardiac SR (2 mg/ml; unbound D-FKBP removed by centrifugation) to 100 nM A-CaM; 30 nM free Ca2+, 20 mM PIPES, 150 mM KCl, 0.1 mg/ml BSA; 1536-well plates, read 60 min after loading; DMSO or 20 μM suramin …"}}, "data": [{"substance": "AF568-CaM (calmodulin T34C labelled with AF568) (from UniProt P0DP23 1-149) (natural protein)", "values": [{"measurement": "increase in donor fluorescence lifetime (Δτ) with 20 μM suramin against DMSO control", "setting": "[1]", "value": 922, "unit": "ps"}, {"measurement": "increase in donor fluorescence lifetime (Δτ) with 20 μM suramin against DMSO control", "setting": "[2]", "value": 339, "unit": "ps"}]}]}
